Our source for the activity change, negative = inhibition values is PubChem BioAssay AID504810 (National Center for Advancing Translational Sciences (NCATS), 2011).

Chains of the proteins cited; added tags and fusions are not shown.
UniProt P16473, whole entry: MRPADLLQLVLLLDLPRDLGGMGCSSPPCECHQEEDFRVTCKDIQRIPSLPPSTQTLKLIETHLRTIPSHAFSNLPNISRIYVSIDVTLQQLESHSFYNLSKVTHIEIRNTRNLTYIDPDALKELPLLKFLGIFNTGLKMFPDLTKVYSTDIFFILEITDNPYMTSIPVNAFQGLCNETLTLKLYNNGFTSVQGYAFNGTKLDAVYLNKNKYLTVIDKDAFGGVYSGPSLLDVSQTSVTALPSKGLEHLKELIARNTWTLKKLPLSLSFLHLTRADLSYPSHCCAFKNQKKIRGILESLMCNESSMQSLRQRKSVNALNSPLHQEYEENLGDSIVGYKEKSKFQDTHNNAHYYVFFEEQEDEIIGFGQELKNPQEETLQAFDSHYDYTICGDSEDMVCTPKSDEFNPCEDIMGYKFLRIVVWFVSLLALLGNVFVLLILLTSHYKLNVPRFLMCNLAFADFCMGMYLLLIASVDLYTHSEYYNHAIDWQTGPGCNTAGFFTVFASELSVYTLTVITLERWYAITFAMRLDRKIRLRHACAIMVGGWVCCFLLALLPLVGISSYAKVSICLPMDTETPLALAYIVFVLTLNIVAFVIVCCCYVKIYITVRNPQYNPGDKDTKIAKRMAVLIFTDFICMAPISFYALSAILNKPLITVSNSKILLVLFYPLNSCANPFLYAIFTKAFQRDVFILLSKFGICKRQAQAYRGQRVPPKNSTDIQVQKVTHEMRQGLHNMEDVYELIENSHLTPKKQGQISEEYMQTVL

The list shows a part of the results, in another mix than the full data. The source made the active and inactive calls.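 How the source made its calls: active means activity change below a set negative limit, meaning inhibition stronger than a set level (cut at about -70% in these data); inconclusive means activity change between two set negative limits; inactive means the rest.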
On the % scale 0 is the no-effect control and ±100 the full control effect.

This experiment has as its target Thyrotropin receptor (Homo sapiens) (UniProt P16473). Put plainly: Antagonists of the Thyroid Stimulating Hormone Receptor: HTS campaign. Particulars: TSHR-expressing cells, TSH-stimulated cAMP HTRF, 2 h; at 11.5 µM; hits give low values. The source says: The thyroid-stimulating hormone receptor (TSHR) is a member of the 7 trans-membrane-spanning receptor (7TMR) family of cell surface receptors. TSHR-mediated hyperthyroidism is important in thyroid pathology. The development of small molecule antagonists of TSHR may lead to therapeutic approaches for TSHR-mediated hyperthyroidism caused by constitutively activating mutations or stimulating auto-antibodies associated with Graves' disease. Graves' disease is the leading cause of hyperthyroidism and is caused by autoantibodies that stimulate TSHR (TsAbs) causing thyroid growth and unregulated overproduction of thyroid hormones and existing treatments have liabilities (agranulocytosis). In addition, TSHRs are known to be expressed in multiple extrathyroidal tissues including bone, brain, kidney, testis, fat and cells of the immune system but the role of the TSHR in these tissues is not clear. Therefore, TSHR antagonists/inverse agonists could be used as probes of extrathyroidal TSHR function. Finally, TSHR inverse agonists, which are a subclass of antagonists that inhibit agonist-independent (or basal or constitutive) TSHR signaling, could be used to inhibit TSH-independent signaling in patients with recurrent or metastatic thyroid cancer who are receiving thyroid hormone to suppress TSH. In collaboration between scientist from the NCGC and the NIDDK, a miniaturized HTRF high-throughput screen was developed. It's a cell based assay, where an anti cAMP antibody contains a fluorescent cryptate tag (excitation 337 nm; emission 620 nm) and the acceptor is cAMP-d2 (excitation 620 nm; emission 665 nm). When antibody and cAMP-d2 interact and are excited by a 337 nm light, a FRET occurs resulting in emission at 665 nm. The assay is competition between cAMP-d2 and cAMP (from the cell lysate). The homogeneous protocol allows for one step dispense after stimulation that is automation friendly. NIH Chemical Genomics Center [NCGC] NIH Molecular Libraries Probe Centers Network [MLPCN] MLPCN Grant: MH090855-01 Assay Submitter (PI): Marvin Gerhengorn
1. 3ul of 200 TSHR freshly harvested cells/well are dispensed into a 1536 TC-treated white solid bottom plate. 2. Through pintool addition, 23nl of compounds and control in 100% DMSO are added to the plate. 3. Then 1ul of EC80 TSH (4nM final) is added to the plate. 4. Assay is incubated at 37 deg C for 2 hours. 5. 2ul of cAMP antibody diluted 1:20 in lysis buffer is added. 6. Immediately following, 2ul of d2 diluted 1:20 in HBSS is added seperately. 7. The assay is incubated for 30 minutes at ambient room temperature. 8. The result is obtained by using a ViewLux read-out with HTRF settings.
A general note: Time-resolved FRET reads energy transfer from a long-lived donor to a nearby acceptor.
For the compound `O=[N+]([O-])c1cc([N+](=O)[O-])c(-n2nnc3ccccc32)c([N+](=O)[O-])c1`, the activity change, negative = inhibition is inactive: 6.6%.

With `Cc1nc2ccc3ccccc3c2s1.O=[N+]([O-])c1cc([N+](=O)[O-])c(O)c([N+](=O)[O-])c1`, the activity change, negative = inhibition was inactive: -3.5%.

As to `O=[N+]([O-])c1cc([N+](=O)[O-])c(Nc2nnnn2CCO)c([N+](=O)[O-])c1`, the activity change, negative = inhibition is inactive: -19.2%.

Consider `CN1CCCCC1COC(=O)C1(O)c2ccccc2CCc2ccccc21` (configuration not stated), for which the activity change, negative = inhibition was inactive: 2.69%.

Take `COc1ccccc1OP(C)(=O)Nc1c(C)cccc1C` (configuration not stated): the activity change, negative = inhibition is inactive: -13.9%.

For `CCCOc1ccc(NP(C)(=O)Oc2ccc(Cl)cc2)cc1` (configuration not stated), the activity change, negative = inhibition is inactive: -8.81%.

Regarding `CP(=O)(Nc1ccc(SC(F)(F)F)cc1)Oc1ccccc1` (configuration not stated), the activity change, negative = inhibition was inactive: -4.88%.

On to `CC1=NCCc2c1[nH]c1ccccc21.O=[N+]([O-])c1cc([N+](=O)[O-])c(O)c([N+](=O)[O-])c1`, for which the activity change, negative = inhibition was inactive: 8.35%.

Regarding `COc1ccccc1OP(C)(=O)Nc1cccc(Br)c1` (configuration not stated), the activity change, negative = inhibition is inactive: 2.57%.

With `Cc1cc(C)cc(OP(C)(=O)Nc2ccc(C)cc2C)c1` (configuration not stated), the activity change, negative = inhibition was inactive: 1.37%.

Consider `CCOC(=O)c1ccc(NP(C)(=O)Oc2cc(C)cc(C)c2)cc1` (configuration not stated), for which the activity change, negative = inhibition is inactive: 22.5%.

As for `Cc1cc(C)cc(OP(C)(=O)Nc2ccccn2)c1` (configuration not stated), the activity change, negative = inhibition was inactive: 1.24%.

Turning to `CP(=O)(Nc1cccc(Br)c1)Oc1ccccc1` (configuration not stated), the activity change, negative = inhibition is inactive: 25.3%.

Regarding `Cc1ccc(C)c(NP(C)(=O)Oc2ccccc2)c1` (configuration not stated), the activity change, negative = inhibition was inactive: 5.6%.

Consider `CCN(CC)CCCOC(=O)C(O)(c1ccccc1)c1ccccc1`, for which the activity change, negative = inhibition is inactive: 12.4%.

On to `O=[N+]([O-])c1cc([N+](=O)[O-])c(Nc2cccnc2)c([N+](=O)[O-])c1`, for which the activity change, negative = inhibition is inactive: -22.9%.

As to `CC(C)(C)c1ccc(OP(C)(=O)Nc2ccc(SC(F)(F)F)cc2)cc1` (configuration not stated), the activity change, negative = inhibition was inactive: 7.95%.

As to `Cc1cccc(C)c1OP(C)(N)=O` (configuration not stated), the activity change, negative = inhibition was inactive: 17.7%.

`O=[N+]([O-])c1ccc2c(c1)C=Nc1ccccc1O2`: the activity change, negative = inhibition was inactive: -3.91%.

As to `CCOC(=O)c1ccc(NP(C)(=O)Oc2ccccc2)cc1` (configuration not stated), the activity change, negative = inhibition was inactive: 0.355%.

As for `COc1ccccc1OP(C)(=O)Nc1ccc(C)cc1` (configuration not stated), the activity change, negative = inhibition is inactive: 8.34%.

`Cc1ccc(NP(C)(=O)Oc2ccccc2)c(C)c1` (configuration not stated): the activity change, negative = inhibition was inactive: 16.3%.

In the case of `COc1ccccc1OP(C)(=O)Nc1cc(Cl)ccc1C` (configuration not stated), the activity change, negative = inhibition is inactive: -4.27%.

Consider `COc1ccc(OP(C)(=O)Nc2cccc(F)c2)cc1` (configuration not stated), for which the activity change, negative = inhibition is inactive: -1.45%.

In the case of `Cc1cc(C)cc(OP(C)(N)=O)c1` (configuration not stated), the activity change, negative = inhibition is inactive: 6.31%.

Regarding `CP(=S)(Nn1cnnc1)Oc1ccccc1` (configuration not stated), the activity change, negative = inhibition was inactive: 4.83%.

For the compound `COc1ccccc1OP(C)(=O)Nc1ccccc1` (configuration not stated), the activity change, negative = inhibition is inactive: -1.24%.
